The values that follow come from patent publication US20250375420A1 (ZYLORION HEALTH INC., priority 2022, published 2025).

The chains behind the UniProt entries cited, without tags or fusion partners.
UniProt P28223, whole entry: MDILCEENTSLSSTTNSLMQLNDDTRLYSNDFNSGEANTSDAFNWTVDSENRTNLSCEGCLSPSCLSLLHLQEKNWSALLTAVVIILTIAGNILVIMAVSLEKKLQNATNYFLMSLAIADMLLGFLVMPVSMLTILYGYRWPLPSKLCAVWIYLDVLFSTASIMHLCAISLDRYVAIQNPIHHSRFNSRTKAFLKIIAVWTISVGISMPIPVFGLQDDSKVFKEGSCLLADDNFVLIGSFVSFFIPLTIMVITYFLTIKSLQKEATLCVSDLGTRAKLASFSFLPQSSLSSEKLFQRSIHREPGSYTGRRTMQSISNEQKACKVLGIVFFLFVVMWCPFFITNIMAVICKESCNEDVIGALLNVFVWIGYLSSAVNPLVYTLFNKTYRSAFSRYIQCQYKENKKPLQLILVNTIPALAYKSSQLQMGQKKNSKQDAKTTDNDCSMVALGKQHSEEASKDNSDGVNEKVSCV

In general, EC50 refers to the midpoint of the concentration-response curve. Low readings indicate higher potency in that assay, high ones lower potency in that assay.

Read-outs that look alike come from different tables or passages of the source.

The target of test [1] is T1, h5HT2a (Homo sapiens, UniProt P28223). To be noted: Ca2+ release, CHO-K1 h5HT2a, 0.1 nM-10 μM, 1 min.
In test [2] the target is T1, h5HT2a. To be noted: βarrestin2 recruitment, CHO-K1 h5HT2a, 0.1 nM-10 μM, 2 h, AUC. In general terms: Arrestin recruitment assays detect the binding of arrestin to an activated receptor.

For `CNCCc1c[nH]c2cccc(O)c12` [Norpsilocin], at h5HT2a [1], the EC50 worked out at 72 nM and the “pEC50 ± S.E.M.” value stood at 7.1 ± 0.80. Besides, at h5HT2a [2], the EC50 amounted to 2.4 nM and the “pEC50 ± S.E.M.” value amounted to 8.6 ± 1.7.
